miR-21 reporter: miR-21 reporter, rising signal; HeLa miR-21 FLuc reporter, luciferase, 48 h; Potency, µM (titrated, usually from 38.3 µM); 340,000 tested, under 10 active; AID 2288; active = well fitted rising curve with a large enough effect; inconclusive = small, poorly fitted or top-dose-only effect; inactive = no such curve, though single readings can be large or run the other way;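 also: miR-21 action dims this reporter so a rising signal means less miR-21 action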
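Using DMEM plus 10% FBS, HeLa miR-21-FLuc cells are incubated with test compounds (final up to about 40uM) for 48 hours; firefly luciferase signal is then imaged following reagent-mediated lysis.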
Nrf2 activator: activates Nrf2 signaling; 410,000 tested, 0.31% active; Potency, µM (doses to about 46.1 µM), usual class: activators; AREc32 ARE-luciferase reporter (MCF7-derived line), luminescence, 24 h; AID 624171; also: nearly all actives have a fitted effect of over 65% in size
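Reporter line AREc32 (ARE-Fluc), seeded overnight in OPTI-MEM with 5% FBS; compound pin-transferred, 24 hr at 37 deg C, 5% CO2; luminescent read-out.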
A549 tox-1: kills or reduces viability of A549 cells in Nrf2 counter-screen; A549 ARE-Fluc cells, CellTiter-Fluor viability, 18-24 h; Potency, µM (highest dose often 46 µM), usual class: inhibitors; 390,000 tested, 0.16% active; AID 504648
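Cytotoxicity counterscreen: CellTiter-Fluor fluorescence was measured in A549 ARE_Fluc cells after 18-24 h of compound exposure in a concentration series. The subsequent BugLite luminescent read reports ARE-luciferase activity.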
Nrf2 block: inhibitors of Nrf2 signaling | A549 ARE-Fluc reporter, luciferase luminescence, 18-24 h | 360,000 tested, 2.1% active | Potency, µM (top dose mostly 46 µM), hits mostly inhibitors; also: nearly all actives have a fitted effect of over 60% in size
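A549 ARE_Fluc cells (5000/well, 5% FBS OPTI-MEM) pre-incubated 2 h, then treated with compounds 18-24 h at 37C/5% CO2 in concentration-response. CellTiter-Fluor viability read first; BugLite luciferase luminescence after 15 min at room temperature gives Nrf2 activity.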
ClpP mod: qHTS Assay for Activators of ClpP. 340,000 tested, 1.9% active. purified B. subtilis ClpP, FRET peptide cleavage, 20 min. Potency, µM (series often up to 57.5 µM). AID 651965, 2013; active = well fitted falling curve with a large enough effect; inconclusive = small, poorly fitted or top-dose-only effect; inactive = no such curve, though single readings can be large or run the other way; also: the source files actives as falling curves though it sought activators and does not explain the sign; nearly all actives have a fitted effect of over 65% in size
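FRET quenching reversal measured ClpP activation: 10 microg/mL B. subtilis ClpP at pH 8 with the FRET-FV decapeptide, read at 430 nm after 320 nm excitation. The 20-min minus 0-min signal was scaled between DMSO/no-enzyme wells and ADEP (5.8 microM final).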
p53 reactivator: restores transcriptional activity of mutant p53; H1299 p53-A138V BP100-luciferase reporter, luminescence, 24 h; Potency, µM (series often up to 92.2 µM), most hits filed as activators; 320,000 tested, 0.063% active; AID 504706; also: nearly all actives have a fitted effect of over 45% in size
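H1299 (p53-null), stable ts p53-A138V + BP100-Luc; 1000 cells/well, Opti-MEM/10% FBS; cpd 4 pt, 1:5; 24 h, 37 deg C, 5% CO2; detection reagent 10 min RT; luminescence.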
FLuc enzyme inh: firefly luciferase inhibition, Nrf2 hit validation. shares compounds with Nrf2 block. purified firefly luciferase, luminescence inhibition. Potency, µM (doses to about 57.5 µM), actives largely listed as inhibitors. 1,400 tested, 4% active. AID 720522; also: nearly all actives have a fitted effect of over 65% in size
A549 tox-2: counter-screen for Nrf2 inhibitors: cytotoxicity in A549 ARE cells. A549 ARE-Fluc cells, cytotoxicity counterscreen. Potency, µM (series often up to 46.1 µM), hits mostly inhibitors. shares compounds with Nrf2 block. 1,400 tested, 2% active. AID 720523;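 also: cells exposed to compounds for 18 to 24 hours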
Nrf2 ARE inh: confirmation of Nrf2 inhibitors in A549 ARE reporter cells; shares compounds with Nrf2 block; A549 ARE-firefly luciferase reporter, luminescence; Potency, µM (highest dose often 46.1 µM), usual class: inhibitors; 1,400 tested, 74% active; AID 720524; also: nearly all actives have a fitted effect of over 65% in size
Each line names hits and unclear results; the compound was inactive in the other large screens (follow-up assays come after a bar, where they were run). Rows were chosen to be rich in hits. Some 3.7% of all compounds tested hit in one or more screens of this group. Unless noted, calls follow the shape of the dose curve; as a rule, active = well fitted curve in the direction sought with a large enough effect; inconclusive = small, poorly fitted or top-dose-only effect, or another doubt; inactive = no such curve, though single readings can be large; an effect the other way counts as inactive or inconclusive.

Cc1ccc(NC(=O)Cn2cc(S(=O)(=O)N3CCN(c4ccccc4F)CC3)c3ccccc3c2=O)cc1F	none (no result: p53 reactivator)
CCC[C@H]1NC(=O)[C@H](C)N(C)C(=O)C(C)(C)C(=O)C(C)NC(=O)[C@H](Cc2ccc(OC)cc2)N(C)C(=O)[C@H](C(C)C)N(C)C(=O)CNC(=O)[C@H](CC(C)C)N(C)C(=O)CNC(=O)[C@H]([C@@H](C)CC)OC(=O)[C@H]1C (stereo not given in full)	A549 tox-1 1.5µM, Nrf2 block 1µM (no result: miR-21 reporter) | FLuc enzyme inh inactive | A549 tox-2 inconclusive | Nrf2 ARE inh 1.8µM
CC[C@H](C)C1OC(=O)[C@@H](C)[C@@H](CC)NC(=O)[C@H](C)N(C)C(=O)C(C)(C)C(=O)C(C)NC(=O)[C@H](Cc2ccc(OC)cc2)N(C)C(=O)[C@H](C(C)C)N(C)C(=O)CNC(=O)[C@H](CC(C)C)N(C)C(=O)CNC1=O (stereo not given in full)	none (no result: miR-21 reporter, A549 tox-1, Nrf2 block, p53 reactivator)
CC(CC(=O)N1CCN(c2cccc(Cl)c2)CC1)S(=O)(=O)c1ccc2c(c1)NC(=O)CO2 (stereo not given)	miR-21 reporter inconclusive, A549 tox-1 inconclusive, Nrf2 block 6.5µM | FLuc enzyme inh inactive | A549 tox-2 inactive | Nrf2 ARE inh 23µM
O=S(=O)(c1ccc(NC(=S)NCCC(c2ccccc2)c2ccccc2)cc1)N1CCOCC1	miR-21 reporter inconclusive, A549 tox-1 inconclusive, Nrf2 block 4.1µM | FLuc enzyme inh inactive | A549 tox-2 inactive | Nrf2 ARE inh inconclusive
CCCCOCCCNC(=S)Nc1ccc(S(=O)(=O)N2CCOCC2)cc1	none
CN(CCc1ccccc1)C(=O)c1ccc(NC(=O)Cc2ccc(NC(=O)C3CCCN(C(=O)C4CCC4)C3)cc2)cc1 (stereo not given)	Nrf2 block inconclusive (no result: miR-21 reporter, p53 reactivator)
CN(CCc1ccccc1)C(=O)c1ccc(NC(=O)Cc2ccc(NC(=O)C3CCCN(C(=O)CCc4ccccc4)C3)cc2)cc1 (stereo not given)	Nrf2 block 1.3µM (no result: miR-21 reporter, p53 reactivator) | FLuc enzyme inh inactive | A549 tox-2 inactive | Nrf2 ARE inh 4.1µM
O=C(CSc1nnc(Cn2nnc3ccccc32)o1)N(Cc1ccc(Cl)cc1)c1ccccc1	A549 tox-1 inconclusive, Nrf2 block 5.8µM | FLuc enzyme inh inactive | A549 tox-2 inactive | Nrf2 ARE inh 9.2µM
Cc1cc(C)c(Cn2c(C(O)c3ccccc3)nc3ccccc32)c(C)c1 (stereo not given)	none (no result: p53 reactivator)
CC(=O)Nc1ccc(NC(=S)NC(=O)c2ccc(-c3ccccc3)cc2)cc1	none (no result: miR-21 reporter, p53 reactivator)
CC(C)NS(=O)(=O)c1ccc(NC(=S)NC(=O)c2ccc(-c3ccccc3)cc2)cc1	Nrf2 block 2.1µM | FLuc enzyme inh inactive | A549 tox-2 inactive | Nrf2 ARE inh 4.6µM
CC(=O)c1ccc(-c2c(C3C4C=CCCC4(C)C(=O)N3Cc3ccccc3)ccc3ccccc23)cc1 (stereo not given)	Nrf2 block inconclusive (no result: miR-21 reporter, Nrf2 activator, ClpP mod, p53 reactivator)
CC(C)(C)OC(=O)N1CCC(NC(=O)c2[nH]cnc2C(=O)Nc2ccccc2F)CC1	none (no result: miR-21 reporter, A549 tox-1, Nrf2 block, p53 reactivator)
Cc1nnsc1C(=O)Nc1ccc(S(=O)(=O)N2CCC(C)CC2)cc1	Nrf2 block 9.2µM | FLuc enzyme inh inactive | A549 tox-2 inactive | Nrf2 ARE inh 5.2µM
CCc1ccc(NC(=O)c2ccc3c(=O)n4c(nc3c2)CCCCC4)cc1	Nrf2 block inconclusive

Source: PubChem BioAssay
